This passage reports relative growth results from published antibiotic growth screens (doi:10.1038/s41589-023-01349-8).

This is one part of the list.

This test deals with A. baumannii ATCC 17978. The test can be described thus: relative growth (fraction of control); higher = less inhibition. The settings on record: 50 µM.
Consider `COCC(=O)N1C[C@@H](C)[C@H](OC)CN(C)C(=O)c2cc(NC(=O)c3cc(C)on3)ccc2OC[C@@H]1C`, for which the relative growth came to 0.964.
For `C=C1c2cccc(O)c2C(=O)C2=C(O)[C@]3(O)C(=O)C(C(N)=O)=C(O)[C@@H](N(C)C)[C@@H]3[C@@H](O)[C@H]12.Cl`, the relative growth worked out at 0.172.
In turn, `O=C(O)CNC(=O)C1CCC1` registered a relative growth of 1.07.
`CCOC(=O)N1CCN(C(=O)C2CCN(S(=O)(=O)N(CC)CC)CC2)CC1` registered a relative growth of 1.12.
In turn, `O=C(/C=C/c1ccc(O)cc1)c1ccccc1O` gave a relative growth of 0.859.
`COC(=O)C[C@H]1C(C)(C)C(=O)[C@@H]2CC3=C4CC(=O)O[C@@H](c5ccoc5)[C@]4(C)CCC3[C@@]1(C)C2=O` (stereo partly drawn): the relative growth worked out at 1.15.
`Cc1ccccc1-n1ccc(=O)[nH]c1=O`: the relative growth turned out to be 0.715.
In the case of `COc1ccccc1S(=O)(=O)N(C)C[C@@H]1Oc2c(NC(=O)Nc3cccc4ccccc34)cccc2C(=O)N([C@@H](C)CO)C[C@H]1C`, the relative growth was determined as 1.03.
As for `CCC[C@@H]1C[C@@H](C(=O)N[C@H]([C@H]2O[C@H](SC)[C@H](O)[C@@H](O)[C@H]2O)[C@@H](C)Cl)N(C)C1`, the figure is 0.37; as for `CC(C)Cc1nc2ccccc2[nH]1`, 0.755.
Molecule `O=C1N[C@@H](Cc2ccccc2)C(=O)N2[C@@H]1C[C@@H](C(=O)NCc1ccc(F)cc1)[C@H]2c1cccc(OCCO)c1` gave a relative growth of 1.07.
As for `COc1ccccc1S(=O)(=O)N[C@H]1C=C[C@@H](CC(=O)N2CCN(C)CC2)O[C@H]1CO`, the relative growth was 1.
`C[C@H](O)C#Cc1ccc2c(c1)O[C@H](CN(C)C(=O)Cc1ccccn1)[C@@H](C)CN([C@H](C)CO)S2(=O)=O` showed a relative growth of 0.882.
For the molecule `Cc1cc(Oc2ccnc3cc(Cl)ccc23)ccc1Cl`, the relative growth came to 0.988.
Molecule `CC1(C)C2CC[C@]3(C)C(C(=O)C=C4[C@@H]5C[C@@](C)(C(=O)[O-])CC[C@]5(C)CC[C@]43C)[C@@]2(C)CC[C@@H]1OC(=O)CCC(=O)[O-].[Na+].[Na+]` (stereo partly drawn) returned a relative growth of 0.947.
In turn, `OC[C@H]1NC[C@H](O)[C@@H](O)[C@@H]1O` showed a relative growth of 1.01.
Turning to `C[C@@H]1CC2C3CCC4=CC(=O)C=C[C@]4(C)[C@@]3(F)[C@@H](O)C[C@]2(C)[C@@]1(O)C(=O)CO` (stereo partly drawn), the relative growth was 1.13.
As for `C[C@@H]1CN([C@@H](C)CO)S(=O)(=O)c2ccc(-c3ccc(C(=O)N(C)C)cc3)cc2O[C@H]1CN(C)C(=O)C1CCC1`, the figure is 1.03; as for `CCc1c(C)[nH]c2c(C#N)cnn2c1=O`, 1.06.
`CC(C)NC(=O)N[C@@H]1C=C[C@@H](CC(=O)NCCCN(C)C)O[C@@H]1CO` registered a relative growth of 1.
With `CCCNC(=O)Cn1c(=O)n(C)c2ccccc21`, the relative growth is 1.09.
Molecule `CC(O)C(=O)[O-].[Na+]` (stereo not drawn) registered a relative growth of 0.923.
`N#Cc1ccc(NCCNC(=N)N)nc1` had a relative growth of 1.01.
